The record followed here is PubChem BioAssay (NCI).

This test can be described thus: NCI Yeast Anticancer Drug Screen. Data for the mgt1 strain (AID 153). As to conditions: S. cerevisiae mgt1 mutant growth inhibition, hits give high values. The method, then:
Growth inhibition of yeast strains with defined genetic alterations is measured as a screen for potential anti-cancer activity. Selected strains with alterations in DNA damage repair or cell cycle control were exposed to compounds and growth inhibition was measured relative to vehicle treated controls. The strain used in this assay is mgt1

Only a part is listed here, and it is no random draw. Some structures show a salt or complex split into parts, the way the source records it. Some compounds were tested as several samples or in several runs, with calls that do not always agree. The source made the active and inactive calls. Rule as the data show it: active = growth inhibition above about 70%; inactive = the rest.

`Cc1cc2ccccc2cc1C.O=[N+]([O-])c1cc([N+](=O)[O-])cc([N+](=O)[O-])c1`: the growth inhibition is, setting by setting: (at 1.2 µM) inactive: -4%; (at 3.7 µM) inactive: -2%; (at 11.0 µM) inactive: 1%; (at 33.0 µM) inactive: 15%; (at 100.0 µM) active: 87%.
For `O=[N+]([O-])C(F)(COCC(O)CO)[N+](=O)[O-]` (stereo not given) the same measures were inactive: -8%, inactive: -21%, inactive: -10%, inactive: 45% and active: 91%.
For `[Au].[C-]#N.[C-]#N` the same measures were inactive: -30%, inactive: -10%, inactive: -6%, inactive: 7% and inactive: 2%.
For `Nc1ccccc1.O=[N+]([O-])c1cc([N+](=O)[O-])cc([N+](=O)[O-])c1` the same measures were inactive: -3%, inactive: 1%, inactive: 25%, active: 99% and active: 99%.
As to `Cc1c2ccccc2cc2ccccc12.O=[N+]([O-])c1cc([N+](=O)[O-])c(O)c([N+](=O)[O-])c1`, the growth inhibition by setting is: (at 1.2 µM) inactive: -3%; (at 3.7 µM) inactive: -1%; (at 11.0 µM) inactive: 4%; (at 33.0 µM) inactive: 27%; (at 100.0 µM) active: 97%.
`COc1ccccc1N.O=[N+]([O-])c1cc([N+](=O)[O-])cc([N+](=O)[O-])c1`: the growth inhibition is inactive: -2% (at 1.2 µM); inactive: 8% (at 3.7 µM); inactive: 38% (at 11.0 µM); active: 100% (at 33.0 µM); active: 99% (at 100.0 µM).
Consider `Cc1ccc2ccc3ccc4ccccc4c3c2c1.O=C1c2cc([N+](=O)[O-])ccc2-c2c1cc([N+](=O)[O-])cc2[N+](=O)[O-]`, for which the growth inhibition (at 1.2 µM) is inactive: -4%; the growth inhibition (at 3.7 µM) is inactive: 1%; the growth inhibition (at 11.0 µM) was inactive: 0%; the growth inhibition (at 33.0 µM) is inactive: 6%; the growth inhibition (at 100.0 µM) was inactive: 18%.
